# Measured affinities in a library of Ab-14 light chain variants

Values reported by Engelhart et al. 2022, doi:10.1038/s41597-022-01779-4 (FLAb copy).

The target is the same throughout: PDVDLGDISGINAS, from the HR2 region of SARS-CoV-2 spike.

The variants keep the heavy chain, the linker and the frameworks of Ab-14 (scFv order VH, the linker GGGGSGGGGSGGGGS, VL).
VH: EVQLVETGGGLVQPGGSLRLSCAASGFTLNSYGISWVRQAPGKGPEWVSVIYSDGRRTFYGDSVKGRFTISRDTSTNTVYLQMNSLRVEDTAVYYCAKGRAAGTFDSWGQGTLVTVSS
VL: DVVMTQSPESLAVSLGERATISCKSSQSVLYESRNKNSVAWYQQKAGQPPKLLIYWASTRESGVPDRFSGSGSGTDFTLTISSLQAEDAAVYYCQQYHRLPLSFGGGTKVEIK

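The starting antibody came from a phage panning campaign against this peptide. Variants in AAYL50 differ from the parent at up to three CDR positions; double and triple changes were sampled at random. The assay is AlphaSeq: two haploid yeast populations carry antibody and antigen on their surface. Mating (16 h, 30 °C) was followed by selection of diploids and sequencing of their barcodes. Read counts were normalised to the haploid input and turned into Kd by a linear fit to BCL2-family pairs of known affinity, for each replicate. Mating was done three times.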

Each variant is given by its three light chain CDRs, as the data file delimits them; those of the parent are KSSQSVLYESRNKNSVA, WASTRES, QQYHRLPLS. Affinities are written as log10 Kd with Kd in nM; a lower number is a better binder. The mean shown is taken over the replicates in which the pair was detected. An entry "n.d." has no value in the source: the pair was not observed among the diploids in that replicate. This suggests poor binding but is not conclusive.

| CDR-L1 | CDR-L2 | CDR-L3 | replicates, log10 nM | mean, log10 nM | empty controls |
|---|---|---|---|---|---|
| KSSQHVLYESRNKNSVA | WASTRES | QQYHRLPLI | 1.54 / 2.20 / 1.81 | 1.85 | 0/9 |
| KQSQSVLYESRNQTSVA | WASTRES | QQYHRLPLS | 2.01 / 2.11 / 2.30 | 2.14 | 4/9 (4.14) |
| KSSQSVLYESRYKNSVA | WASTRES | QQYHRLPLS | 1.28 / 1.49 / 1.69 | 1.49 | 3/9 (4.66) |
| KFSQSVLYESRNKNSVA | WASTRET | QQYHRYPLS | -0.28 / 0.07 / -0.17 | -0.12 | 7/9 (4.96) |
| KSSQSVLYSSRNKNSVA | WASTAEN | QQYHRLPLS | 2.86 / 2.89 / 2.93 | 2.89 | 4/9 (4.91) |
| KSSQSVLYESRNFNSVA | WASTRES | QQYHVKPLS | n.d. / n.d. / n.d. | n.d. | 0/9 |
| KSSQSVLYESRNKNSTA | WASTDEV | QQYHRLPLS | n.d. / n.d. / n.d. | n.d. | 0/9 |
| KSSQSVLYESRNKNSVA | WASTRES | QAYHRELLS | 1.78 / 1.43 / 1.31 | 1.51 | 0/9 |
| KSWQSVLYESGNKNSVA | WASTRES | QQYHKLPLS | n.d. / 3.96 / 4.37 | 4.16 | 7/9 (4.30) |
| KSSQSVGNESRNKNSVA | WASTRES | QQYHSLPLS | 0.47 / 0.65 / 0.50 | 0.54 | 5/9 (4.28) |
| KSSQSVLYESRNKWSVA | WASTRES | QQYHVLPLS | 2.87 / 3.22 / 3.53 | 3.21 | 4/9 (4.11) |
| KSSQSVLYESRNQNWVA | WASTRES | QQYHRLPLS | 3.82 / 3.17 / n.d. | 3.50 | 2/9 (4.14) |
| KSSQSVIYESRNKRSVA | WASTRES | QQYHRLPLL | n.d. / 3.94 / 4.05 | 3.99 | 2/9 (4.09) |
| KWSQSVLYESRNKNSVA | WAIYRES | QQYHRLPLS | 3.18 / 3.31 / 3.00 | 3.17 | 1/9 (4.82) |
| KYSQSVLYESRNKNSVA | WASTRES | MQYHRLMLS | 1.00 / 1.42 / 1.03 | 1.15 | 1/9 (4.65) |
| KSSQEVLYESRNKNSVA | WASWRES | QQEHRLPLS | 3.00 / 2.88 / 3.56 | 3.15 | 4/9 (3.75) |
| KSWQSVIYESRNKNSVA | WASTRES | TQYHRLPLS | 4.33 / n.d. / n.d. | 4.33 | 3/9 (4.88) |
| KSSQYVLYESRNKNSVA | WASTWES | QQYHHLPLS | 3.73 / n.d. / 5.38 | 4.56 | 5/9 (3.84) |
| KSSQSVLYESVNKNSVC | WASTRCS | QQYHRLPLS | 1.56 / 1.49 / 1.72 | 1.59 | 3/9 (4.52) |
| KSSQSVLYESRNKNSNA | WASTRES | QQLHPLPLS | n.d. / 3.42 / 4.32 | 3.87 | 3/9 (4.46) |
| KSWQSVLYEFRNKNSVA | WASTRES | QQYHRLPLS | n.d. / 3.23 / 3.23 | 3.23 | 1/9 (4.41) |
| KSSQSVLYEERCKNSVV | WASTRES | QQYHRLPLS | 5.90 / 4.57 / n.d. | 5.24 | 5/9 (4.30) |
| KSSQSVLYEERNKNSQA | WASTRES | QQYHRLSLS | n.d. / n.d. / n.d. | n.d. | 0/9 |
| KSAQSVLYESRNCNSVA | WASTRES | QQYHRLPLS | 1.48 / 1.34 / 1.17 | 1.33 | 1/9 (3.15) |
| KSSYSVLAESRCKNSVA | WASTRES | QQYHRLPLS | 0.96 / 1.11 / 1.22 | 1.09 | 0/9 |
| KSSQSVLYESRAKNTVA | WASTRES | QQYHRLPLM | n.d. / 2.80 / 3.57 | 3.18 | 0/9 |
| KSSQSELYESRNKNSVA | WNPTRES | QQYHRLPLS | n.d. / n.d. / n.d. | n.d. | 0/9 |
| KMSQLVLYESRNKNSVA | WASTRVS | QQYHRLPLS | 0.59 / 0.66 / 0.62 | 0.62 | 1/9 (3.37) |
| KSSQMVLYESRNKWSVA | WASTKES | QQYHRLPLS | n.d. / n.d. / n.d. | n.d. | 3/9 (3.56) |
| KSSMSNLYESRNKNSVA | QASTRES | QQYHRLPLS | 0.75 / 0.83 / 0.75 | 0.78 | 6/9 (4.86) |
| KSSQSVLYTSRNKNSVA | WASTRES | VQYHRCPLS | n.d. / 3.55 / 5.75 | 4.65 | 3/9 (4.71) |
| KSSQSVLYESRNKNIVA | WASTRES | QQYHRLPEA | n.d. / n.d. / n.d. | n.d. | 1/9 (3.19) |
| KSSQSVLYESRNKNSVA | WASRRES | MQYDRLPLS | n.d. / n.d. / n.d. | n.d. | 1/9 (2.88) |
| KSSQSVEYESRNKNSVA | WASTRES | QQYHHLPLS | 2.24 / 2.48 / 2.59 | 2.44 | 3/9 (4.28) |
| MSSQSVLYKSREKNSVA | WASTRES | QQYHRLPLS | 1.71 / 2.33 / 2.07 | 2.04 | 1/9 (3.71) |
| KSDQSVLYESRNKNSKA | WASTRES | QQYHCLPLS | n.d. / n.d. / n.d. | n.d. | 0/9 |
| KSSQSVLYESENKNSVA | WASTRES | QQYHRLPLH | 1.92 / 2.14 / 2.49 | 2.18 | 0/9 |
| KSSQSVLYESRNKQSVA | WASTRES | QQYHRLPGQ | 0.93 / 1.09 / 1.20 | 1.07 | 2/9 (4.26) |
| KSTQSVLYESRNKNSVA | WARTRES | QQYHRLPLG | 3.26 / 2.99 / 3.96 | 3.40 | 1/9 (3.26) |
| KSSQSVLYESRNKNSVA | WASPRET | QQYHRLPLS | n.d. / n.d. / n.d. | n.d. | 1/9 (2.78) |
| KSSQSVLYESRNKNSVA | WASTRES | WQKHRLPMS | n.d. / n.d. / n.d. | n.d. | 0/9 |
| FSSQSVLYESRNKNSVA | WASTRES | QQYHRLPLS | 1.36 / 1.32 / 1.26 | 1.31 | 0/9 |
| KSSQSVLYESRNKNSKS | WASTRES | QQYPRLPLS | n.d. / n.d. / n.d. | n.d. | 2/9 (3.34) |
| KSSMSVLYESRNKNSGA | WASTRAS | QQYHRLPLS | n.d. / 2.84 / 4.79 | 3.81 | 0/9 |
| KQSQSVLYESRNKNKVA | GASTRES | QQYHRLPLS | 2.86 / 2.30 / 2.66 | 2.60 | 4/9 (4.07) |
| KSSQSVLYESRNKNSVA | WASTRES | QAYVFLPLS | 5.12 / 5.36 / n.d. | 5.24 | 2/9 (4.03) |
| KSSQSVLYESRNKNSVA | WASTRES | DQYMVLPLS | 5.20 / n.d. / 5.49 | 5.35 | 4/9 (4.55) |
| KASQSVLYESRNKNSAA | WASTRES | QQYHRAPLS | n.d. / n.d. / n.d. | n.d. | 2/9 (2.82) |
| KSSQSVLYESRNKNSVA | TASTRES | QQYHRLPES | n.d. / n.d. / n.d. | n.d. | 1/9 (3.03) |

The 8 strongest on average among those seen in every replicate, once more:

| CDR-L1 | CDR-L2 | CDR-L3 | replicates, log10 nM | mean, log10 nM | empty controls |
|---|---|---|---|---|---|
| KFSQSVLYESRNKNSVA | WASTRET | QQYHRYPLS | -0.28 / 0.07 / -0.17 | -0.12 | 7/9 (4.96) |
| KSSQSVGNESRNKNSVA | WASTRES | QQYHSLPLS | 0.47 / 0.65 / 0.50 | 0.54 | 5/9 (4.28) |
| KMSQLVLYESRNKNSVA | WASTRVS | QQYHRLPLS | 0.59 / 0.66 / 0.62 | 0.62 | 1/9 (3.37) |
| KSSMSNLYESRNKNSVA | QASTRES | QQYHRLPLS | 0.75 / 0.83 / 0.75 | 0.78 | 6/9 (4.86) |
| KSSQSVLYESRNKQSVA | WASTRES | QQYHRLPGQ | 0.93 / 1.09 / 1.20 | 1.07 | 2/9 (4.26) |
| KSSYSVLAESRCKNSVA | WASTRES | QQYHRLPLS | 0.96 / 1.11 / 1.22 | 1.09 | 0/9 |
| KYSQSVLYESRNKNSVA | WASTRES | MQYHRLMLS | 1.00 / 1.42 / 1.03 | 1.15 | 1/9 (4.65) |
| FSSQSVLYESRNKNSVA | WASTRES | QQYHRLPLS | 1.36 / 1.32 / 1.26 | 1.31 | 0/9 |

Three control strains display no target. For library AAYL50, 18% of the pairings with them gave a signal, with a median of 4.19 and one signal in twenty below 2.99, so weak values seen in few replicates may be background. The control count says in how many pairings with the empty strains this scFv gave a signal, with their mean in brackets. For reference, the parent read 0.65 as the reference entry and 1.68 as a member of this library.